Measured values: ChEMBL document CHEMBL1135173, “Discovery of substituted 3,4-diphenyl-thiazoles as a novel class of monoamine transporter inhibitors through 3-D pharmacophore search using a new pharmacophore model derived from mazindol” (Bioorg Med Chem Lett, 2002)

By UniProt entry, the sequences of proteins in these tests, tags left out.
UniProt Q9WTR4, whole entry: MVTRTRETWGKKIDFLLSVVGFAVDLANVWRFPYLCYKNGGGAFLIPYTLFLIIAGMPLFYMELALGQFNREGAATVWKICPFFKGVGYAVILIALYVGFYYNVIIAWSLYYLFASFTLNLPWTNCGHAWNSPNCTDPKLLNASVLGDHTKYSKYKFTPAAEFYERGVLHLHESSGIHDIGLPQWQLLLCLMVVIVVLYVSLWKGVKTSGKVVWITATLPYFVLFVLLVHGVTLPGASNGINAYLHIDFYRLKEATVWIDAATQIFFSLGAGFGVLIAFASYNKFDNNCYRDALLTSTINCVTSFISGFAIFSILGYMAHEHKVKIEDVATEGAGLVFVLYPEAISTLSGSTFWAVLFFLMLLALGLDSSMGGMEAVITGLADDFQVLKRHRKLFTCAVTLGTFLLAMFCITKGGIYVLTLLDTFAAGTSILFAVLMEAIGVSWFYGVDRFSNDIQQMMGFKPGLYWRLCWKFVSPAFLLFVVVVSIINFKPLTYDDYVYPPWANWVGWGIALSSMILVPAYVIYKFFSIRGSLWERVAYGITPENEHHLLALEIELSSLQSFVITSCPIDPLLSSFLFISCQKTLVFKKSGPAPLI

Target: Norepinephrine transporter (Rattus norvegicus, UniProt Q9WTR4)
Assay: Compound was tested for the inhibition of norepinephrine [3H]NE reuptake into rat cortical membranes
Type: cell membranes, Membrane

Structure (SMILES): COC(=O)[C@@H]1C2CCC(C[C@@H]1C(=O)Oc1ccccc1)N2C (stereo partly specified)
- Ki: 108 nM
